## Permeability data for macrocyclic peptides

Collected by the curators of CycPeptMPDB (Li et al. 2023) from Fouché et al. 2016, doi:10.1002/cmdc.201600082.

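The data file gives no further conditions (lipid, pH, time, direction or concentration), and values from different papers need not be comparable. Other peptides of the study may be missing here. Peptides that the database sets to -10, its floor, are left out.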

MDCK: transport across canine kidney epithelial cells.
Permeability is given as log10 of P in cm/s; higher (less negative) is more permeable.

C[C@@H]1NC(=O)[C@H](C)N(C)C(=O)[C@H](C)NC(=O)[C@@H]2CCCN2C(=O)CN(C)C(=O)[C@H](C)NC(=O)[C@H](C)N(C)C(=O)[C@H](C)NC(=O)[C@@H]2CCCN2C(=O)CN(C)C1=O is reported with MDCK -6.17 (log10 cm/s).
CC(C)C[C@@H]1NC(=O)[C@H](C)N(C)C(=O)[C@H](CC(C)C)NC(=O)[C@H](C)N(C)C(=O)[C@@H](C)N(C)C(=O)[C@H](CC(C)C)NC(=O)[C@H](C)N(C)C(=O)[C@H](CC(C)C)NC(=O)[C@H](C)N(C)C(=O)[C@@H](C)N(C)C1=O is reported with MDCK -5.18 (log10 cm/s).
CC(C)C[C@@H]1NC(=O)[C@H](C)N(C)C(=O)[C@H](CC(C)C)NC(=O)[C@H](Cc2ccccc2)N(C)C(=O)[C@@H](CC(C)C)N(C)C(=O)[C@H](CC(C)C)NC(=O)[C@H](C)N(C)C(=O)[C@H](CC(C)C)NC(=O)[C@H](Cc2ccccc2)N(C)C(=O)[C@@H](CC(C)C)N(C)C1=O is reported with MDCK -6.30 (log10 cm/s).
CC(C)C[C@@H]1NC(=O)[C@H](C)N(C)C(=O)[C@H](CC(C)C)NC(=O)[C@@H]2CCCN2C(=O)[C@@H](Cc2ccccc2)N(C)C(=O)[C@H](CC(C)C)NC(=O)[C@H](C)N(C)C(=O)[C@H](CC(C)C)NC(=O)[C@@H]2CCCN2C(=O)[C@@H](Cc2ccccc2)N(C)C1=O is reported with MDCK -5.82 (log10 cm/s).
CC(C)C[C@@H]1NC(=O)[C@H](CC(C)C)N(C)C(=O)[C@H](CC(C)C)NC(=O)[C@H](C)N(C)C(=O)[C@@H](C)N(C)C(=O)[C@H](CC(C)C)NC(=O)[C@H](CC(C)C)N(C)C(=O)[C@H](CC(C)C)NC(=O)[C@H](C)N(C)C(=O)[C@@H](C)N(C)C1=O is reported with MDCK -4.61 (log10 cm/s).
C[C@@H]1NC(=O)[C@H](C)N(C)C(=O)[C@H](C)NC(=O)[C@H](C)N(C)C(=O)[C@@H](C)N(C)C(=O)[C@H](C)NC(=O)[C@H](C)N(C)C(=O)[C@H](C)NC(=O)[C@H](C)N(C)C(=O)[C@@H](C)N(C)C1=O is reported with MDCK -6.12 (log10 cm/s).
CC(C)C[C@@H]1NC(=O)[C@H](CC(C)C)N(C)C(=O)[C@H](CC(C)C)NC(=O)[C@@H]2CCCN2C(=O)CN(C)C(=O)[C@H](CC(C)C)NC(=O)[C@H](CC(C)C)N(C)C(=O)[C@H](CC(C)C)NC(=O)[C@@H]2CCCN2C(=O)CN(C)C1=O is reported with MDCK -4.73 (log10 cm/s).
CC(C)C[C@@H]1NC(=O)[C@H](C(C)C)N(C)C(=O)[C@H]2CCCN2C(=O)[C@H](CC(C)C)NC(=O)[C@H](C)N(C)C(=O)[C@H](CC(C)C)NC(=O)[C@H](C(C)C)N(C)C(=O)[C@H]2CCCN2C(=O)[C@H](CC(C)C)NC(=O)[C@H](C)N(C)C1=O is reported with MDCK -5.22 (log10 cm/s).
CC(C)C[C@@H]1NC(=O)[C@H](C)N(C)C(=O)[C@H]2CCCN2C(=O)[C@H](CC(C)C)NC(=O)[C@H](Cc2ccccc2)N(C)C(=O)[C@H](CC(C)C)NC(=O)[C@H](C)N(C)C(=O)[C@H]2CCCN2C(=O)[C@H](CC(C)C)NC(=O)[C@H](Cc2ccccc2)N(C)C1=O is reported with MDCK -5.65 (log10 cm/s).
CC(C)C[C@@H]1NC(=O)[C@H](C)N(C)C(=O)[C@H](CC(C)C)NC(=O)[C@H](C)N(C)C(=O)[C@@H](Cc2ccccc2)N(C)C(=O)[C@H](CC(C)C)NC(=O)[C@H](C)N(C)C(=O)[C@H](CC(C)C)NC(=O)[C@H](C)N(C)C(=O)[C@@H](Cc2ccccc2)N(C)C1=O is reported with MDCK -5.35 (log10 cm/s).
CC(C)C[C@@H]1NC(=O)[C@H](Cc2ccccc2)NC(=O)[C@H]2CCCN2C(=O)[C@H](CC(C)C)NC(=O)[C@H](C)NC(=O)[C@H](CC(C)C)NC(=O)[C@H](Cc2ccccc2)NC(=O)[C@H]2CCCN2C(=O)[C@H](CC(C)C)NC(=O)[C@H](C)NC1=O is reported with MDCK -6.20 (log10 cm/s).
CC(C)C[C@@H]1NC(=O)[C@H](C)N(C)C(=O)[C@H](CC(C)C)NC(=O)[C@H](Cc2ccccc2)N(C)C(=O)[C@@H](C)N(C)C(=O)[C@H](CC(C)C)NC(=O)[C@H](C)N(C)C(=O)[C@H](CC(C)C)NC(=O)[C@H](Cc2ccccc2)N(C)C(=O)[C@@H](C)N(C)C1=O is reported with MDCK -6.25 (log10 cm/s).
CC(C)C[C@@H]1NC(=O)[C@H](C)N(C)C(=O)[C@H](CC(C)C)NC(=O)[C@@H]2CCCN2C(=O)CN(C)C(=O)[C@H](CC(C)C)NC(=O)[C@H](C)N(C)C(=O)[C@H](CC(C)C)NC(=O)[C@@H]2CCCN2C(=O)CN(C)C1=O is reported with MDCK -6.22 (log10 cm/s).
CC(C)C[C@@H]1NC(=O)[C@H](C)N(C)C(=O)[C@H]2CCCN2C(=O)[C@H](CC(C)C)NC(=O)[C@H](C)N(C)C(=O)[C@H](CC(C)C)NC(=O)[C@H](C)N(C)C(=O)[C@H]2CCCN2C(=O)[C@H](CC(C)C)NC(=O)[C@H](C)N(C)C1=O is reported with MDCK -5.19 (log10 cm/s).

Repeated from above, the 2 entries with the highest MDCK:

Listed for CC(C)C[C@@H]1NC(=O)[C@H](CC(C)C)N(C)C(=O)[C@H](CC(C)C)NC(=O)[C@H](C)N(C)C(=O)[C@@H](C)N(C)C(=O)[C@H](CC(C)C)NC(=O)[C@H](CC(C)C)N(C)C(=O)[C@H](CC(C)C)NC(=O)[C@H](C)N(C)C(=O)[C@@H](C)N(C)C1=O: MDCK -4.61 (log10 cm/s).
Listed for CC(C)C[C@@H]1NC(=O)[C@H](CC(C)C)N(C)C(=O)[C@H](CC(C)C)NC(=O)[C@@H]2CCCN2C(=O)CN(C)C(=O)[C@H](CC(C)C)NC(=O)[C@H](CC(C)C)N(C)C(=O)[C@H](CC(C)C)NC(=O)[C@@H]2CCCN2C(=O)CN(C)C1=O: MDCK -4.73 (log10 cm/s).